Experimental data reported in ChEMBL document CHEMBL6087484, “Discovery of Novel Small-Molecule Inhibitors Disrupting the MTDH-SND1 Protein-Protein Interaction” (J Med Chem, 2025).

How the values were obtained:
[1] = tested on: MCF7; experiment: animal or person; details: Mus musculus, MCF7, 336 h, read-out: TGI
[2] = in vivo; details: Sprague-Dawley, rat, po, 20 mg/kg
[3] = in vivo; details: Sprague-Dawley, rat, iv, 1 mg/kg
[4] = tested on: MCF7; experiment: animal or person; details: Mus musculus, MCF7, 336 h, read-out: TGI; remark: listed apart in the source
[5] = in vivo; details: Sprague-Dawley, rat, po, 20 mg/kg; remark: listed apart in the source
[6] = in vivo; details: Sprague-Dawley, rat, iv, 1 mg/kg; remark: listed apart in the source
[7] = in vivo; details: Sprague-Dawley, rat, iv, 1 mg/kg; remark: listed apart in the source
[8] = in vivo; details: Sprague-Dawley, rat, po, 20 mg/kg; remark: listed apart in the source
[9] = in vivo; details: Sprague-Dawley, rat, po, 20 mg/kg; remark: listed apart in the source
[10] = in vivo; details: Sprague-Dawley, rat, po, 20 mg/kg; remark: listed apart in the source
[11] = tested on: MCF7; experiment: animal or person; details: Mus musculus, MCF7, 336 h, read-out: TGI; remark: listed apart in the source
[12] = in vivo; details: Sprague-Dawley, rat, iv, 1 mg/kg; remark: listed apart in the source
[13] = tested on: MCF7; details: Homo sapiens, dose 30.0 mg/kg, route ip, time 14.0 day
[14] = tested on: MCF7; details: Homo sapiens, dose 10.0 mg/kg, route ip, time 14.0 day
[15] = tested on: MCF7; details: Homo sapiens, dose 60.0 mg/kg, route ip, time 14.0 day

half-life at 24 h [2] [h] | MRT inf at 24 h [3] [h] | Tmax at 24 h [5] [h] | Cmax at 24 h [6] [ng/mL] | half-life at 24 h [7] [h] | bioavailability at 24 h [8] [%] | MRT inf at 24 h [9] [h] | AUC(0-inf) at 24 h [10] [ng·h/mL] | AUC(0-inf) at 24 h [12] [ng·h/mL] | SMILES | inhibition in vivo at 60 mg/kg [1] [%] | inhibition in vivo at 30 mg/kg [4] [%] | inhibition in vivo at 10 mg/kg [11] [%] | TGI [13] | TGI [14] | TGI [15]
1.68 | 1.1 | 0.22 | 426 | 1.59 | 0.58 | 4.07 | 28.9 | 235 | O=S(=O)(Nc1cc(F)cc2cccnc12)c1cccc2cccnc12 | 50.5 | 40.5 | 28.6 |  |  | 
 |  |  |  |  |  |  |  |  | COc1ccc(Cl)cc1S(=O)(=O)Nc1cccn2ncnc12 |  |  |  | inactive | inactive | inactive

Activity calls are given as the source filed them. The rule behind the calls is not given here.
